The values below are quoted from earlier work in publication PMC5465209 (Scientific Reports, 2017).

The subject of this data set is secretion of insulin. The settings on record: cited from earlier work. From the text:
An important mechanism whereby calcineurin promotes the activation of T cells and the induction of cytokine-related genes is largely attributed to a family of transcriptional regulators that are referred to as NFAT. The immunosuppressants cyclosporine A and FK506, which are used clinically to prevent transplant rejection, inhibit the activity of calcineurin phosphatase on all its protein substrates, including NFAT[1], [2]. Although these drugs have revolutionized transplant therapy, their use is associated with the progressive loss of the renal function, hypertension, hyperglycemia, neurotoxic ...

In the case of `CC[C@H](C)[C@H](NC(=O)[C@@H](NC(=O)[C@@H]1CCCN1C(=O)[C@H](Cc1c[nH]cn1)NC(=O)[C@@H]1CCCN1C(=O)CNC(=O)[C@H](C)NC(=O)[C@H](CCSC)NC(=O)CNC(=O)CNC(=O)[C@H](CCCNC(=N)N)NC(=O)[C@H](CCCNC(=N)N)NC(=O)[C@H](CCCNC(=N)N)NC(=O)[C@H](CCCNC(=N)N)NC(=O)[C@H](CCCNC(=N)N)NC(=O)[C@H](CCCNC(=N)N)NC(=O)[C@H](CCCNC(=N)N)NC(=O)[C@H](CCCNC(=N)N)NC(=O)[C@H](CCCNC(=N)N)NC(=O)[C@H](CCCNC(=N)N)NC(=O)[C@@H](N)CCCNC(=N)N)C(C)C)C(=O)N[C@H](C(=O)N[C@H](C(=O)N[C@H](C(=O)NCC(=O)N1CCC[C@H]1C(=O)N[C@@H](Cc1c[nH]cn1)C(=O)N[C@@H](CCC(=O)O)C(=O)N[C@@H](CCC(=O)O)C(=O)O)[C@@H](C)O)[C@@H](C)CC)C(C)C` [11R-VIVIT], the Secretion of insulin entry is reported as “did not affect the secretion of insulin”.
